Test results: patent US11059818B2, “Triazolopyridine inhibitors of myeloperoxidase” (BRISTOL-MYERS SQUIBB COMPANY, priority 2016, dated 2021)

Amino acid sequences for entries named in this document (tags omitted). Residues count along the entry.
UniProt P05164, 49-745 limits assumed: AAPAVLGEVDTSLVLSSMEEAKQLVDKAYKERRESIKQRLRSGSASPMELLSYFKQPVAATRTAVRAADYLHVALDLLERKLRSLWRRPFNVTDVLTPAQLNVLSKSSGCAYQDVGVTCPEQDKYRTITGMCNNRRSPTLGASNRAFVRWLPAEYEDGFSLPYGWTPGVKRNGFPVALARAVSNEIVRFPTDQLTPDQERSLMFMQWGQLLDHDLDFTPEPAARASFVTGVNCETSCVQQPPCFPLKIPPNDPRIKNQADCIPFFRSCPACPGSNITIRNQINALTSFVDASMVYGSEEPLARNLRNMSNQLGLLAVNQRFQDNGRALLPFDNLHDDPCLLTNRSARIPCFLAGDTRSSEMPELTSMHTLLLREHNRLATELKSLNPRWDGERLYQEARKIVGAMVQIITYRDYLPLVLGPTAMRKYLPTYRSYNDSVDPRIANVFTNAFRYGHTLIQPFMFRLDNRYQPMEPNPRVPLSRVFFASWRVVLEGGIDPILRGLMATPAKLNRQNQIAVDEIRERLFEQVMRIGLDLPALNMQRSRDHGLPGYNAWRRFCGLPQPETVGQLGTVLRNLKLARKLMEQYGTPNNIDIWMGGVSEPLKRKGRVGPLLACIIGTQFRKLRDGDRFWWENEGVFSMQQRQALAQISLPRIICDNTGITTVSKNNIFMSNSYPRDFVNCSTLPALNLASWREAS

Legend:
myeloperoxidase [1] = molecular target: T1, myeloperoxidase (Homo sapiens (Human), UniProt P05164); test: MPO Peroxidation Assay (Amplex Red Assay); details: read-out: Amplex Red Assay IC50 value, potency range class, tested form: 2TFA
Protocol: MPO Peroxidation Assay (Amplex Red Assay)
MPO peroxidation activity was measured in 100 mM KPi (pH 7.4) by utilizing the non-fluorescent reagent Amplex Red (Invitrogen Cat. #A12222) which can be oxidized to the highly fluorescent resorufin. Amplex Red is oxidized by the peroxidase action of MPO to resorufin. Reactions were carried out in 50 μL total volume by adding a 25 μL mixture of 200 pM myeloperoxidase and 40 nM H2O2(Sigma #349887) to 100 nL inhibitor in 100% DMSO in a 384 well Perkin Elmer Optiplate. Enzyme and compound were preincubated for ten minutes at rt.
After the ten minute preincubation, 25 μL of an Amplex Red mixture containing 200 μM Amplex Red and 10 mM H2O2 was added to the plate. Kinetic determinations were carried out immediately on a Perkin Elmer Envision (15 minute kinetic read, Ex: 535 nm, Em: 590 nm).
IC50 values were calculated by determining the slope of the linear portion of the kinetic trace (180-540 secs), and using that calculated slope to determine % inhibition occurring at each concentration of inhibitor using the following equation:
(§1) [formula] where A=minimal Y value (activity level of inhibited sample), B=maximal Y value (activity level of uninhibited sample), C=Log IC50, D=Hill Slope, x=concentration of inhibitor. MPO Chlorination Assay (APF Assay)

myeloperoxidase [2] = molecular target: T1, myeloperoxidase; test: MPO Chlorination Assay (APF Assay); details: read-out: APF Assay IC50 value, potency range class, tested form: 2TFA
Protocol: as §1
MPO chlorination activity was measured in 100 mM KPi (pH 7.4) by utilizing the non-fluorescent reagent Aminophenyl fluorescein (APF, Invitrogen Cat. #A36003). APF is cleaved by (—OCl) to yield the fluorescent compound fluorescein. Reactions were carried out in 50 μL total volume by adding a 25 μL mixture of 200 pM myeloperoxidase and 120 mM NaCl to 100 nL inhibitor in 100% DMSO in a 384 well, non-binding surface clear bottom plate (Corning #3655). Enzyme, inhibitor, and chloride were preincubated for ten minutes at rt.
After the ten minute preincubation, 25 μL of an APF mixture containing […], 120 mM NaCl and 10 μM H2O2 was added to the plate using the internal dispensing system of a Hammatsu FDSS 6000. Kinetic determinations were carried out immediately on the FDSS 6000 (3 minute kinetic read, 1 read every second, ex: 485 nm, em: 535 nm). IC50 values for inhibitors were calculated by taking the slope of the linear portion of the kinetic measurement (20 seconds to ˜80-120 secs). […]
[formula] where A=minimal Y value (activity level of inhibited sample), B=maximal Y value (activity level of uninhibited sample), C=Log IC50, D=Hill Slope, x=concentration of inhibitor.

Compound | IC50 (myeloperoxidase [1]) [nM] | IC50 (myeloperoxidase [2]) [nM]
Nc1cc(C(CCNC23CCC(c4ccccc4)(CC2)CC3)c2cnn(Cc3cccc(O)c3)c2)c2nn[nH]c2n1 (stereo not shown) | 1 to 100 | 1 to 100
Nc1cc(C(CCNC23CCC(c4ccccc4)(CC2)[C@H](O)C3)c2cnn(CCc3cccc(O)c3)c2)c2nn[nH]c2n1 (stereo partly shown) | 1 to 100 | 1 to 100
NC(=O)CN(CCC(c1cnn(Cc2cccc(O)c2)c1)c1cc(N)nc2[nH]nnc12)C12CCC(c3ccccc3)(CC1)[C@H](O)C2 (stereo partly shown) | 101 to 999 | 101 to 999
COCCN(CCC(c1cnn(Cc2cccc(O)c2)c1)c1cc(N)nc2[nH]nnc12)C12CCC(c3ccccc3)(CC1)[C@H](O)C2 (stereo partly shown) | 101 to 999 | 1 to 100
Nc1cc(C(CCN(CCO)C23CCC(c4ccccc4)(CC2)CC3)c2cnn(Cc3cccc(O)c3)c2)c2nn[nH]c2n1 (stereo not shown) | 1 to 100 | 1 to 100
